Assay [1] has as its target TAG-72 purified target. As to the kind of experiment: ELISA, coating Mucin(H2O), replicate 2.
Assay [2] deals with TAG-72 purified target. Put plainly: ELISA, coating Mucin(HCl), replicate 2.
The target of assay [3] is TAG-72 on cancer cell lines. As to the kind of experiment: flow cytometry, percent of cells bound; legend: MCF-7 cells, 20 µg antibody (text paragraph 140: 200 µg, in the context of OVACAR-3).
Assay [4] has as its target TAG-72 on cancer cell lines. Put plainly: flow cytometry, percent of cells bound; legend: MCF-7 cells, 40 µg antibody (text paragraph 140: 400 µg, in the context of OVACAR-3).
The target in assay [5] is TAG-72 purified target. Put plainly: ELISA, coating Mucin(H2O), replicate 1.
In assay [6] the target is TAG-72 purified target. Put plainly: ELISA, coating Mucin(HCl), replicate 1.

As for “CC49_BITE_2: CC49_SCFV-2-LINKER-OKT3_SCFV-H6 (bispecific antibody)”, the OD490 in the assay with TAG-72 purified target [1] amounted to 0.31 OD490; with TAG-72 purified target [2], 0.366 OD490; in the assay with TAG-72 purified target [5], 0.308 OD490; in the assay with TAG-72 purified target [6] it was 0.364 OD490. Besides, the figures for the % binding in assay [3] and in assay [4] were 9.89% and 18.5%, respectively.

(Values after patent US20170058043A1.)
